Test results taken from patent publication US20260315441A1, “FORMULATIONS OF PENICILLIN AND METHODS FOR STABILIZING PENICILLIN” (VETERINARY PHARMACY CORPORATION, priority 2023, published 2026).

Experiment: Solubilization, appearance and pH of penicillin solutions
Type: physicochemical
Procedure: According to the embodiments, the pH achieved at solubilization was at what was generally understood to be an insoluble range for normal penicillin solutions. […] Because of the lower pH of these clear solutions, it was theorized that the penicillin, according to the embodiments, could lead to better stability of the product compared to other known methods of solubilization. […] Some embodiments of the penicillin solutions maintained greater than 80% potency at 24 hours. According to some embodiments, the term “high potency” can be a potency at or above 80% at 24 hours at room temperature. […] The term “high potency” can be a potency at or above 87% at 24 hours at room temperature, according to some embodiments. The term “high potency” can be a potency at or above 89% at 24 hours at room temperature, according to some embodiments. The term “high potency” can be a potency at or above 90% at 24 hours at room temperature, according to some embodiments. The term “high potency” can be a potency above 90% at 24 hours at room temperature, according to some embodiments. The term “high potency” can be a potency at or above 91% at 24 hours at room temperature, according to some embodiments. The term “high potency” can be a potency above 91% at 24 hours at room temperature, according to some embodiments. […]

C/C=C/C=C/C(=O)[O-].[K+] [potassium sorbate]
reduction of the requirement of alkaline base or other alkaline solubilizers (compared to what was generally understood to be required): ≥ 10 ×
dissolution of capsule fragments (penicillin powder compounded from capsules, with potassium sorbate): dissolution of the capsule fragments without altering the stability of the product
